Assay results taken from patent publication US20220194983A1 (Bicycle, published 2022).

Chains of the proteins cited; added tags and fusions are not shown. Residues count along the entry.
UniProt Q04609, 44-750 limits assumed: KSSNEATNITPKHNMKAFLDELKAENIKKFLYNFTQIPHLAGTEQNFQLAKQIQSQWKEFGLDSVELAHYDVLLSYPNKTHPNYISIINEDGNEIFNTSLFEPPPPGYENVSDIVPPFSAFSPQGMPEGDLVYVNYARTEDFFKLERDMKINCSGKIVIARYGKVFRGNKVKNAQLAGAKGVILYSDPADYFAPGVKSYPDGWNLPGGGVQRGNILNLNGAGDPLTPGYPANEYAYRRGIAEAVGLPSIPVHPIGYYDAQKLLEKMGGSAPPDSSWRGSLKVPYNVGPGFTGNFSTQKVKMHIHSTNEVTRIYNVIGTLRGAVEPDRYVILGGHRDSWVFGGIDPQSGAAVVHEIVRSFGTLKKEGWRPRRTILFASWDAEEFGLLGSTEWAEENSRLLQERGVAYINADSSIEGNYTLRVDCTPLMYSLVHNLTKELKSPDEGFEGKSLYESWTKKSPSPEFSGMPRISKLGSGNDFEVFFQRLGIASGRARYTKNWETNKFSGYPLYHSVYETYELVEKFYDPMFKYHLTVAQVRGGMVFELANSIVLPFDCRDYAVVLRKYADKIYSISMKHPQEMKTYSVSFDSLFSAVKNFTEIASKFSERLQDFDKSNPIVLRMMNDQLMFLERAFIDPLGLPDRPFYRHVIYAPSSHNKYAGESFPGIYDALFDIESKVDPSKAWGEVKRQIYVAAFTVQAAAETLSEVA

Target: T1, prostate-specific membrane antigen (PSMA) (human, UniProt Q04609 44-750, limits assumed)
T1 construct: also called Glutamate carboxypeptidase II; GCPII
Test: fluorescence polarization, FP (h)

| Binder | Ki |
| --- | --- |
| CMVCHMMEDGTC (N-terminal acetyl; Cys 1, 4 and 12 joined by thioether linkages to TBMB scaffold) [21-31-N003] | 182 nM |
| ACMVCHMMEDGTCAGASPAAPSAPP (Cys 2, 5 and 13 joined by thioether linkages to TBMB scaffold) [21-31-N004] | 95.5 nM |
| CEECLTLEDGTCA (Cys 1, 4 and 12 joined by thioether linkages to TBMB scaffold) [21-31-02-N001] | 28 nM |
| CEECFRLEDGTCA (Cys 1, 4 and 12 joined by thioether linkages to TBMB scaffold) [21-31-03-N001] | 36.5 nM |
| EVCWDCFMMEDGTCA (Cys 3, Cys 6 and Cys 14 joined by thioether linkages to a 1,3,5-tris(methylene)benzene scaffold (from TBMB), Bicyclic peptide on TBMB scaffold, all thioether) [21-31-04-T01-N001] | 2.2 nM |
| SVCRECYMMEDGTCA (Cys 3, 6 and 14 joined by thioether linkages to TBMB scaffold) [21-31-07-T01-N001] | 13 nM |
| LCMECYMMEDGTCA (Cys 2, 5 and 13 joined by thioether linkages to TBMB scaffold) [21-31-12-T01-N001] | 7.6 nM |
